Reference: patent US20220313702A1, “OXATHIAZIN COMPOUNDS FOR INHIBITING GAPDH” (Geistlich Pharma AG, priority 2019, published 2022)

Test system: JL-1 cells
Test: cell viability MTT assay, JL-1 mesothelioma cells
Settings: JL-1, 1.0 uM MMC, 24 h at 37° C.
Description: (§1) Cell viability was tested colorimetically using the MTT assay. Viable cells convert the yellow MTT dye to violet formazan (Sigma M5655).
as §1

**Q.** For mitomycin C, which “cytotoxicity, drug alone” value is on record?
**A.** inactive per se
